Columns and labels:
GST-YTHDF2 = GST-YTHDF2 (Homo sapiens, UniProt Q9Y5A9); experiment: HTRF-based binding assay, competition with m6A-oligoRNA, DF2; details: for Residual signal at 1 mM concentration / Single-dose residual signal at 100 µM, DF2: HTRF; for Residual signal at 1 mM concentration: 1 mM compound, relative to control, average of two technical replicates, * = interference with the assay; for IC50: read-out: DF2 IC50 (HTRF assay), dose-response, competitor m6A-oligoRNA; for Single-dose residual signal at 100 µM, DF2: 100 µM compound, normalized
YTHDC2 = YTHDC2 (Homo sapiens, UniProt Q9H6S0); experiment: DNA-fluorescence polarization (FP) competition assay, DC2; details: read-out: FP assay Kd DC2; Cheng-Prusoff from FP IC50, probe Kd 7 nM; two biological replicates
GST-YTHDF1 = GST-YTHDF1 (Homo sapiens, UniProt Q9BYJ9); experiment: HTRF-based binding assay, DF1; details: 100 µM compound, normalized
GST-YTHDF3 = GST-YTHDF3 (Homo sapiens, UniProt Q7Z739); experiment: HTRF-based binding assay, DF3; details: 100 µM compound, normalized
YTHDF2 = YTHDF2 (Homo sapiens, UniProt Q9Y5A9); experiment: DNA-fluorescence polarization (FP) competition assay, DF2; details: read-out: FP assay Kd DF2; Cheng-Prusoff from FP IC50, probe Kd 5 nM; two biological replicates

Protein sequences, listed by entry. Tags and fused reporters are not part of them. Residues count along the entry.
UniProt Q9Y5A9, whole entry: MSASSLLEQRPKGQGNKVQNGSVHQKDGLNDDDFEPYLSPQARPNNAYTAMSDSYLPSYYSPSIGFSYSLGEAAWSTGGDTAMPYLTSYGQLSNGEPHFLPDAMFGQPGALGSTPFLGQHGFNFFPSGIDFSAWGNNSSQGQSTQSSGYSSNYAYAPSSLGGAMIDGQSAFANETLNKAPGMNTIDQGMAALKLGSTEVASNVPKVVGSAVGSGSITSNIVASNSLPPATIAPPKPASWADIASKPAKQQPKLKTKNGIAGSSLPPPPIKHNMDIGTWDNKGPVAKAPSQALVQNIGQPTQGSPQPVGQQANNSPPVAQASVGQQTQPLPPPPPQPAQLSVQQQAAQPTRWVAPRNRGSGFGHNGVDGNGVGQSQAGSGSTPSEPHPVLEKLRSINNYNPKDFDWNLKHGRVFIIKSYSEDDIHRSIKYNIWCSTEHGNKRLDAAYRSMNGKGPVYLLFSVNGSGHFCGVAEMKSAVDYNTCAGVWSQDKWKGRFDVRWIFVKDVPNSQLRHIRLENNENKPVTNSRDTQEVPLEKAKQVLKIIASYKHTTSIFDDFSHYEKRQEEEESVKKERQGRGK
UniProt Q9H6S0, 1285-1424 limits assumed: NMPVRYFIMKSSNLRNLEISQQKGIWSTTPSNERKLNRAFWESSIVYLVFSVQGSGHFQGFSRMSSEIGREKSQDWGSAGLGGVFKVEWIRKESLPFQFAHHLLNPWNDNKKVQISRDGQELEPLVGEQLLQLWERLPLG
UniProt Q9BYJ9, whole entry: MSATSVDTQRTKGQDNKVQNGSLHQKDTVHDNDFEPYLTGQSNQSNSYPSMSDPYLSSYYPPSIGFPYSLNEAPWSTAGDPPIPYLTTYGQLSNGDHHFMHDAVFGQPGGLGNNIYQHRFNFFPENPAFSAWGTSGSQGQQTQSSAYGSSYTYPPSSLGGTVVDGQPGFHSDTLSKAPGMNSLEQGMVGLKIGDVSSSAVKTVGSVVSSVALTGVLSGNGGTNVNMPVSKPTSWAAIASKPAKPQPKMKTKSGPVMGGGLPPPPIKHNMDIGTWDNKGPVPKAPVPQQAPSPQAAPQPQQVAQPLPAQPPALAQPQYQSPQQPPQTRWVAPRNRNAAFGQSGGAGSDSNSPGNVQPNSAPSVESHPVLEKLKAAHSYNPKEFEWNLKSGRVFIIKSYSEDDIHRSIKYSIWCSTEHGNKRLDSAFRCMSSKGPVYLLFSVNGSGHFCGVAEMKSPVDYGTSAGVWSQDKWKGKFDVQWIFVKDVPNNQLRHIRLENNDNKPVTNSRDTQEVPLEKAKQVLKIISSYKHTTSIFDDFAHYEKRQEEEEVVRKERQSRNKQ
UniProt Q7Z739, whole entry: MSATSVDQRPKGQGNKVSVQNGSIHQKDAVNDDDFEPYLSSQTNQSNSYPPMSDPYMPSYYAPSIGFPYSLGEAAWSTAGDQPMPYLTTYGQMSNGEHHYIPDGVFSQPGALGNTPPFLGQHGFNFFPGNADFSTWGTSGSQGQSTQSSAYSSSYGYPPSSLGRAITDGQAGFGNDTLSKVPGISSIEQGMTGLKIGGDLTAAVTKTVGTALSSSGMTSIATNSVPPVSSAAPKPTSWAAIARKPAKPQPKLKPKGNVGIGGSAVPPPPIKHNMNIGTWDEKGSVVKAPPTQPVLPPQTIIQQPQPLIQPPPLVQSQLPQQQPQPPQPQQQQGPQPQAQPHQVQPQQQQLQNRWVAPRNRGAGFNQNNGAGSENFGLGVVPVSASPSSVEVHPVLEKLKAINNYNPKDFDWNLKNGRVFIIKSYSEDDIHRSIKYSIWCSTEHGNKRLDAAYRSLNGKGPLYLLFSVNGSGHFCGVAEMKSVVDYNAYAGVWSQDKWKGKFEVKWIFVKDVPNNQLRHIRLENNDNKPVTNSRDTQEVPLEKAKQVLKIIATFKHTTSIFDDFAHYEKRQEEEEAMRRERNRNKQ

Row | SMILES | Residual signal at 1 mM concentration (GST-YTHDF2) | LE (ligand efficiency, DF2) (GST-YTHDF2; LE = -RT ln IC50/HAC from HTRF IC50) | IC50 (GST-YTHDF2) | Kd (YTHDC2) | Single-dose residual signal at 100 µM, DF2 (GST-YTHDF2) | Single-dose residual signal at 100 µM, DF1 (GST-YTHDF1) | Single-dose residual signal at 100 µM, DF3 (GST-YTHDF3) | Kd (YTHDF2)
1 | CC1(C)Cc2c(sc3[nH]c(=S)[nH]c(=O)c23)CO1 | 10% | 0.39 kcal/(mol HAC) | 14 µM | – | – | – | – | –
2 | O=c1[nH]c(=S)[nH]c2ccccc12 | 16% | – | 610 µM | – | – | – | – | –
3 | Cc1c(C(=O)NCCCC(=O)OC(C)(C)C)sc2[nH]c(=S)[nH]c(=O)c12 | – | – | 22 µM | > 1000 µM | 5% | 18% | 20% | –
4 | CNC(=O)c1cnc2[nH]c(C)nc2c1 | 27% | – | 540 µM | – | – | – | – | –
5 | O=C(Nc1ccc2[nH]c(=S)[nH]c2c1)c1ccccc1 | 53% | – | 410 µM | – | – | – | – | –
6 | O=c1[nH]c(=S)[nH]c2sc(-c3ccccc3)cc12 | – | – | 40 µM | 34 µM | 11% | 32% | 25% | 8.1 µM

From publication PMC12371494, “Discovery of YTHDF2 Ligands by Fragment-Based Design” (ACS Bio & Med Chem Au, 2025)
